Laboratory results reported in patent US5002943A, “Condensed diazepinones, processes for preparing them and pharmaceutical compositions containing these compounds” (priority 1988, dated 1991).

Biological target: muscarinic receptors (cerebral cortex)
Test: Muscarinic receptor binding, cerebral cortex (displacement of 3H-N-methylscopolamine)
Parameters: species or system male Sprague-Dawley rats
Conditions: cerebral cortex homogenate; 0.3 nanomolar 3H-NMS; 30 C; 45 minutes; pH 7.4; read-out: Receptor Binding Tests IC50, Cortex

**Q.** With `CCN(CC)CC1CCCCN1CC(=O)N1c2ccccc2C(=O)Nc2cccnc21` (stereo not shown) [Substance D, 11-[[2-[(diethylamino)methyl]-1-piperidinyl]acetyl]-5,11-dihydro-6H-pyrido[2,3-b][1,4]benzodiazepin-6-one, reference compound] as the compound, how does the IC50 read?
**A.** The IC50 was 1200 nM.
